Source: patent publication US20040260071A1, “Benzophene-linked crf and crf-like peptides for covalent labeling of corticotropin-releasing factor crf binding protein” (priority 2001, published 2004)
Where two headings read alike, the source gives them in different places.

Assays:
[1] = biological target: T1, rCRFBP (Rattus norvegicus, UniProt P24388); experiment: Scintillation proximity assay with [125I-Tyr0]h/rCRF as radioligand, binding to rCRFBP; conditions: Example 8; 95% CI given alongside; read-out: IC50 (affinity to rCRFBP)
T1 construct: made in house; host or cells: HEK 293 cells, stably transfected (pcDNA3); serum-free conditioned medium used directly
T1 sequence (P24388 25-322): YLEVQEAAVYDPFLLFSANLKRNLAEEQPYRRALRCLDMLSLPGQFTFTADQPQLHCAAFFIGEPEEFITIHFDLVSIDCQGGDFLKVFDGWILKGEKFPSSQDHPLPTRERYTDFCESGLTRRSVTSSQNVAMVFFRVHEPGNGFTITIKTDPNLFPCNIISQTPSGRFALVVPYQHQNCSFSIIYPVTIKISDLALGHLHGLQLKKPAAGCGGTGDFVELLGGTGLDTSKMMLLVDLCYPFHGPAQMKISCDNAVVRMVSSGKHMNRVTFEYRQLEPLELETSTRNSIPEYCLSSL
Method: Recombinant rCRFBP containing a C-terminal His-tag was produced in human embryonic kidney (HEK) 293 cells under serum-free conditions (45). Binding of peptides to rCRFBP was determined in PBS/0.02% NP-40 using a scintillation proximity assay with [^125I-Tyr^0]h/rCRF as radioligand (46).

[2] = biological target: T1, rCRFBP; experiment: Radioligand binding assay (charcoal precipitation, 3H-rUcn) for affinity to rCRFBP
Method: The peptides were tested for their affinity to rCRFBP on the basis of a charcoal precipitation assay utilizing tritiated Ucn as radioligand (21). […] Siliconized microreaction vials (Sigma, Deisenhofen, Germany) were used to prevent binding of peptides to plastic surfaces. Competition binding experiments were performed by employing 0 to maximally 3 μM unlabeled competitor. The applied concentration range depended on the expected order of magnitude of ligand affinity. After 2 hours of incubation at room temperature, unbound ligand was precipitated by the addition of 100 μl precipitation buffer (binding buffer+10% w/v activated charcoal+2% BSA). The suspension was mixed vigorously and the adsorption was allowed to proceed for 2 min at room temperature. After centrifugation for 2 min at 12000×g, 200 μl supernatant was removed, mixed with 2 ml Ecolume liquid scintillation cocktail (ICN Biomedicals, Irvine, Calif.), and counted for 3 min in a Wallac 1209 Rackbeta liquid scintillation counter (Wallac, Turku, Finland). All assays were performed in duplicate and repeated at least three times. Binding data were analyzed using the Prism computer program (GraphPad Software, San Diego, Calif.).

[3] = mean ± S.E.M. of three independent experiments in duplicate; 3H-rUcn radioligand; Cheng-Prusoff; read-out: Inhibition constants (Kl)

| Substance | IC50 [1] [nM] | Ki [2, 3] [nM] | Ki ([2]; read-out: Inhibition constants (Kl); mean ± S.E.M. of three independent experiments in duplicate; 3H-rUcn radioligand; Cheng-Prusoff) [nM] | Kd ([2]; read-out: KD at rCRFBP; homologous competition experiments; mean±S.E.M., n=3) [nM] |
| --- | --- | --- | --- | --- |
| pBB-h/rCRF [Compound 4] | 0.67 | 0.13 ± 0.003 | – | – |
| pBB-h/rCRF^6-33 [Compound 10] | 3.2 | 3.4 ± 0.33 | – | – |
| h/rCRF [Compound 3, reference compound] | – | 0.19 ± 0.009 | – | – |
| rUcn [Compound 1, reference compound] | – | – | 0.23 ± 0.012 | 0.17 ± 0.003 |
